Test results taken from patent US5010083A, “2,6-methano-1,3-benzodiazocine compounds which have useful pharmaceutical utility” (priority 1989, dated 1991).

Target: T1, brain acetylcholinesterase (AChE) (Rattus norvegicus, UniProt P37136)
T1 construct: corpora striata dissected free, weighed and homogenized in 19 volumes; from tissue; host or cells: corpora striata of male Wistar rats, whole homogenate
T1 sequence (P37136 32-614): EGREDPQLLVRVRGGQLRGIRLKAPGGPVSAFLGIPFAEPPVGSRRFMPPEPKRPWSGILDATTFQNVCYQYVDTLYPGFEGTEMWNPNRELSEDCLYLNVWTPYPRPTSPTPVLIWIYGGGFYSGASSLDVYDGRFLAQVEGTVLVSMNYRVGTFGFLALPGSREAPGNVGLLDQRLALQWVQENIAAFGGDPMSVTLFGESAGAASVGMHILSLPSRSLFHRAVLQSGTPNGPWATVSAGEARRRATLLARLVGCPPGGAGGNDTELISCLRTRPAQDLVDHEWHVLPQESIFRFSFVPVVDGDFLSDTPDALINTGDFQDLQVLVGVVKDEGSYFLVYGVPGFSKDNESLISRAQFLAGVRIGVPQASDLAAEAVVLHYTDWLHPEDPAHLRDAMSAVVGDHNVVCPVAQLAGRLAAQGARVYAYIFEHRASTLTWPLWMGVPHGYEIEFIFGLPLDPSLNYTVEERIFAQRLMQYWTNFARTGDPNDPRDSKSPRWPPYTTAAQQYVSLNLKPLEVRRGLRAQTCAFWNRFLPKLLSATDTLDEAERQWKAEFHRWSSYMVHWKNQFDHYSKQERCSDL
Assay: In Vitro Inhibition of Acetylcholinesterase Activity in Rat Striatum
Assay type: biochemical, rat (male Wistar)
Conditions: rat striatum homogenate, 10 min preincubation, pH 7.2, read-out: Inhibition of Brain Acetycholinesterase Activity, Inhibitory Concentration
Text: Cholinesterases are found throughout the body, both in the brain and in serum. However, only brain acetylcholinesterase (AChE) distribution is correlated with central cholinergic innervation. […] We have determined in vitro inhibition of acetylcholinesterase activity in rat striatum according to the method described below.
The method described below was used in this invention for assaying anticholinesterase activity.
1. 0.05M Phosphate buffer, pH 7.2
(c) add (a) to (b) until pH reaches 7.2
(a) 9.9 mg 5,5-dithiobisnitrobenzoic acid (DTNB) (0.25 mM)
(b) 99 mg s-acetylthiocholine chloride (5 mM)
(c) q.s. to 100 ml with 0.05M phosphate buffer, pH 7.2 (reagent 1)
Male Wistar rats are decapitated, brains rapidly removed, corpora striata dissected free, weighed and homogenized in 19 volumes (approximately 7 mg protein/ml) of 0.05M phosphate buffer, pH 7.2 using a Potter-Elvehjem homogenizer. […]
Using the indicated instrument settings the ABA-100 automatically reads the color reaction and prints out the results in enzyme units after 15 minutes.
2. The enzyme activity can also be measured with a Gilford 250 spectrophotometer. […]
The uninhibited activity of the enzyme (tissue homogenate) is first determined. […] The reaction rate is determined by the slope of the recorded absorbance change. The actual rate (moles/liter/min) can be calculated as described in the following formula

[2S-[2b,6b]] and [2R-[2a,6a]]-1,2,3,4,5,6-Hexahydro-2,6-methano-1,3-benzodiazocin-8-ol, S-α-methylbenzylcarbamate salicylate
IC50: 8.7 µM
